Molecular target: Lck-SH2-GST (Homo sapiens, UniProt P06239)
Conditions: 30 μM and 100 μM

Sequences of proteins named here, by UniProt entry; tags and fusion partners are left off. Residues count along the entry.
UniProt P06239, 127-224 limits assumed: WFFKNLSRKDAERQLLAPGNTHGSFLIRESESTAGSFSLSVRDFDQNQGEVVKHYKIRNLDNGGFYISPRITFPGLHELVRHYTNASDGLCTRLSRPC

effect on signal induction (Lck-SH2-GST binding to pTyr peptide EPQpYEEIEL): no effect
Compound: Cc1ccc(S(=O)(=O)OCC(=O)Nc2ccc(C(=O)O)c(O)c2)cc1 [Compound S3I-201, 2-Hydroxy-4-(2-(tosyloxy)acetamido)benzoic acid]

Source: patent US9604923B2 (H. LEE MOFFITT CANCER CENTER AND RESEARCH INSTITUTE, INC., priority 2006, dated 2017)
